Earlier results in EP1079826B1, “USE OF INDIGOID BISINDOLE DERIVATIVES FOR THE MANUFACTURE OF A MEDICAMENT TO INHIBIT CYCLIN DEPENDENT KINASES” (CNRS, Centre National de la Recherche Scientifique, priority 1998, dated 1999).

Chains of the proteins cited; added tags and fusions are not shown.
UniProt P11802, whole entry, species assumed: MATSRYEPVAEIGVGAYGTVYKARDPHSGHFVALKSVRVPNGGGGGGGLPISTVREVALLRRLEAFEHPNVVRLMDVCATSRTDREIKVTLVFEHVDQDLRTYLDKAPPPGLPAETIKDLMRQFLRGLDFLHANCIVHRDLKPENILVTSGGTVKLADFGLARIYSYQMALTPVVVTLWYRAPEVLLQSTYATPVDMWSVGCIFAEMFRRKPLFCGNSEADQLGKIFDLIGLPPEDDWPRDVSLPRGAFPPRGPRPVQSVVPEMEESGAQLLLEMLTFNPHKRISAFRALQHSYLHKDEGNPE

Molecular target: CDK4 (Homo sapiens, UniProt P11802)
Conditions: read-out: IC50 CDK4; Table 1, known inhibitors; cited from earlier work

Cn1cnc2c(NCc3ccccc3)nc(NCCO)nc21 [Olomoucin, olomoucine]
IC50: > 1000 µM
